{
  "sequences": {"note": "Amino acid sequences for entries named in this document (tags omitted). Residues count along the entry.", "UniProt P08842, 22-583": "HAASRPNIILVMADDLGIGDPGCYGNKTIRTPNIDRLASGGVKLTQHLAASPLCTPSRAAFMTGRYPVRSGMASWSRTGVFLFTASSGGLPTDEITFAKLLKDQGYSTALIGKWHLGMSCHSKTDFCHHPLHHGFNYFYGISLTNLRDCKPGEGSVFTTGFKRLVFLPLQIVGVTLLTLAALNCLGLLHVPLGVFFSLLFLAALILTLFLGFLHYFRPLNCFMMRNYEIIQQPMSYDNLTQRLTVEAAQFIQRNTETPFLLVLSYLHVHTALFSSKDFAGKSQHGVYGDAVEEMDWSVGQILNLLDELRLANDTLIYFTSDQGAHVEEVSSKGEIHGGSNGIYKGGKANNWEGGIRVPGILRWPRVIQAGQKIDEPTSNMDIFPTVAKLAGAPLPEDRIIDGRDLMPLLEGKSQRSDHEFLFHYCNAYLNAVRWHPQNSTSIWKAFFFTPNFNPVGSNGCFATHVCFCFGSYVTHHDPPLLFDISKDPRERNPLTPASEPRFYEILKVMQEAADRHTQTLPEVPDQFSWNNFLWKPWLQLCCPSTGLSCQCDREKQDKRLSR"},
  "source": "patent US8003783B2",
  "about": "“17B-hydroxysteroid dehydrogenase inhibitors” (Sterix Limited, priority 2004, dated 2011)",
  "origin": "cited, not measured here",
  "biological_target": "steroid sulphatase (Homo sapiens, UniProt P08842)",
  "conditions": "in vitro; cited from earlier work",
  "data": [
    {"smiles": "NS(=O)(=O)Oc1ccc2c3c(c(=O)oc2c1)CCCCC3", "note": "[667COUMATE]", "values": [
      {"measurement": "potency relative to EMATE", "value": "~3", "unit": "times"}
    ]}
  ]
}
